Target: T1, 5-HT1A receptor (Homo sapiens, UniProt P08908)
T1 construct: host or cells: CHO cells
Assay: FLIPR Ca2+ flux agonist assay at 5-HT1A (CHO cells)
Type: cell-based

Protein sequences, listed by entry. Tags and fused reporters are not part of them.
UniProt P08908, whole entry: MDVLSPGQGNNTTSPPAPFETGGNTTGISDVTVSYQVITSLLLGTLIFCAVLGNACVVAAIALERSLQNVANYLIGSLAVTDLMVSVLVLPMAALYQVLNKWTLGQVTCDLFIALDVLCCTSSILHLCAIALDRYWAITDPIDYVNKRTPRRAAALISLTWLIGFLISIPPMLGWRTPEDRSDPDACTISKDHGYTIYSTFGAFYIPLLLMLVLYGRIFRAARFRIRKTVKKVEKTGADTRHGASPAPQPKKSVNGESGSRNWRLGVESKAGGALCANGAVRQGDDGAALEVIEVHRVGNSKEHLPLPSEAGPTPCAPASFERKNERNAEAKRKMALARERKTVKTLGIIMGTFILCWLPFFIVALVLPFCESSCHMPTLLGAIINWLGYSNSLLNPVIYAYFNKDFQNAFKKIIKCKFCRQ

Structure (SMILES): COc1ccc2[nH]cc(CCN(C)C)c2c1 [Compound 5-MeO-DMT, reference compound]
- EC50: 280 nM
